Read-outs that look alike come from different tables or passages of the source.
Legend:
[1] = test system: S. aureus (ATCC 25923)
Description: S. aureus (ATCC 25923, American Type Culture Collection, Manassas, VA) was grown in Nutrient Broth (Difco Laboratories, Detroit, Mich.) at pH 7, 37°C, 24 h with shaking at 200 rpm. The overnight culture was frozen with 20% glycerol and stored at -80°C. The frozen stock was enumerated (CFU/ml) by dilution plating and growth on Nutrient Agar plates.
For anti-microbial assays, frozen enumerated aliquots were thawed and gently mixed immediately before use. In a 96-well plate (BD Falcon 353072), 1 × 10^5 CFU per well bacteria were incubated with different peptide concentrations (in serial dilutions of 1:10 across the plate) in a solution of buffer containing sterile 10 mM sodium phosphate (pH 7.4) and incubated (3 h, 37°C). Negative control wells contained bacteria with no peptide. Serial dilutions were then carried out in sterile 1x PBS (Fisher Scientific) (pH 7) and plated in triplicate on Nutrient Agar plates, incubated (37°C, 24 h) and counted. […] The EC50 was calculated as previously described.
Each experiment was repeated at least twice, and a representative experiment is shown, for clarity. Errors were reported based on the standard deviation from the mean of the log10 EC50 values. 95% confidence intervals were used to determine whether points were statistically different at p = 0.05.

[2] = test system: S. aureus attachment to 96-well plate; test: Biofilm attachment assay; format: cell-based, Staphylococcus aureus; conditions: peptide 1 μg/ml, 1 h, 37°C, TSB culture OD600 ~1.0, n = 16, Student's t test
Description: The attachment of Staphylococcus spp. to solid surfaces is largely seen as an essential step in the formation of biofilm. Since most of the peptides tested in our biofilm assays were capable of inhibiting biofilm formation (except for scrambled LL-37), we investigated a possible mechanism for this action. We incubated scrambled LL-37 (negative control), LL-37, D-LL-37, NA-CATH, and NA-CATH:ATRA1-ATRA1 peptides with S. aureus in a 1 hr attachment assay at peptide concentrations of 1 ug/ml, examining for the initial adherence to the wells of the 96 well tissue-culture treated plate.
Figure 3 Attachment assay of S. aureus in the presence of peptide. We tested scrambled LL-37 (negative control), LL-37, D-LL-37, NA-CATH, and NA-CATH:ATRA1-ATRA1 against S. aureus (1 h, 37°C) at 1 μg/ml, only allowing for the initial adherence to the wells.
Biofilm attachment assays were performed in a 96-well microtiter plate (BD Falcon 353072), as previously described. Overnight cultures of S. aureus were grown in TSB to an optical density (600nm) of ~1.0. 200 μl culture was added to the wells, followed by no peptide, scrambled LL-37 , LL-37, D-LL-37, NA-CATH, or NA-CATH:ATRA1-ATRA1 at 1 μg/ml. […] The wells were washed and OD600 measurements were taken, as in the biofilm production experiments, and the average absorbance for each treatment was determined (n = 16).

[3] = test system: 2% horse erythrocytes; conditions: peptide up to 100 μg/ml in 10 mM sodium phosphate, 1 h, 37°C, n = 12, compared to PBS
Description: The hemolytic activity of each of the peptides was determined using 2% horse erythrocytes as previously described.
Hemolytic activities of the peptides were determined using equine erythrocytes (Hema Resource Inc., Eugene, OR, USA) in an assay adapted to a microtiter plate format. Briefly, erythrocytes were prepared by centrifuging 1 ml fresh defibrinated blood (1620 × g, 10 min), re-suspending the pelletted cells in 1 ml sterile PBS (Fisher Scientific) (pH 7). The cells were washed with PBS three times; in the final wash the cells were re-suspended in 0.75 ml PBS. From this, a 2% erythrocyte suspension was prepared for the assay. Aliquots of sterile water (positive control), peptide, and PBS (negative control) were used in a microtiter plate. Various peptide concentrations in sterile 10 mM sodium phosphate (0.1, 1, 10, 100 μg/ml) were tested in n = 12. The assay was then incubated (1 h, 37°C). After centrifugation (1000 × g, 10 min), aliquots of supernatant were carefully transferred to a new microtiter plate and the absorbance was obtained for each well. Percent hemolysis was calculated as previously described.

[4] = test system: S. aureus; test: Bacterial growth / MIC in TSB; format: cell-based, Staphylococcus aureus; conditions: TSB (relatively high salt), peptide concentrations up to the EC50 found in 10 mM sodium phosphate
Description: (§1) C. […] Growth (absorbance at 600 nm) is indicated by gray bars with "0 peptide" control set to 100%. Biofilm detection on a polystyrene 96-well plate at 37°C after 24 h of growth in TSB was detected as the absorbance of crystal violet stain (570 nm). Percent biofilm production is indicated by black bars (n = 6), relative to "0 peptide" control. Each experiment is a representative of at least two independent trials. Error bars indicate the standard deviation from the mean. The asterisk (*) indicates statistically different than the positive control (p < 0.01).
(§2) Biofilm production was measured as previously described with the following modifications. […] The positive control is S. aureus in TSB with no peptide. Six wells were used for each peptide concentration (n = 6). After 24 h, the optical densities (OD) of the wells were taken at 600nm to quantify […]. The biofilm production was measured using the crystal violet stain technique.

[5] = test system: S. aureus biofilm formation; conditions: peptide 10 μg/ml, TSB, 24 h, 37°C, polystyrene 96-well plate, crystal violet 570 nm, n = 6, relative to 0 peptide control
Description: as §1, §2
All experiments were repeated at least twice, with a representative experiment shown.

[6] = EC50 in μg/ml converted with the molecular weight of the TFA salt of the peptide
[7] = S. aureus ATCC 25923, 1 × 10^5 CFU per well, 3 h, 37°C, 10 mM sodium phosphate (pH 7.4), % survival by CFU counts, plated in triplicate, representative experiment

For `CC(C)C[C@H](NC(=O)[C@H](CCCCN)NC(=O)[C@H](CCCCN)NC(=O)[C@H](Cc1ccccc1)NC(=O)[C@H](Cc1ccccc1)NC(=O)[C@H](CCCCN)NC(=O)[C@H](CCCCN)NC(=O)[C@H](Cc1ccccc1)NC(=O)[C@H](CCCNC(=N)N)NC(=O)[C@@H](N)CCCCN)C(=O)N[C@@H](CCCCN)C(N)=O` [ATRA-1], the EC50 [1, 6] was 0.22 µM and the “EC50” value [1, 7] was 0.52 mg/L.
In the case of `C[C@H](NC(=O)[C@H](CCCNC(=N)N)NC(=O)[C@@H](N)CCCCN)C(=O)N[C@@H](CCCCN)C(=O)N[C@@H](CCCCN)C(=O)N[C@@H](Cc1ccccc1)C(=O)N[C@@H](Cc1ccccc1)C(=O)N[C@@H](CCCCN)C(=O)N[C@@H](CCCCN)C(=O)N1CCC[C@H]1C(=O)N[C@@H](CCCCN)C(N)=O` [ATRA-2], the EC50 [1, 6] is reported as 7.77 µM and the “EC50” value [1, 7] is reported as 18.0 mg/L.
With `CC[C@H](C)[C@H](NC(=O)[C@@H](NC(=O)[C@H](CCCCN)NC(=O)[C@H](CC(C)C)NC(=O)[C@H](CCCCN)NC(=O)[C@H](CCCCN)NC(=O)[C@H](Cc1ccccc1)NC(=O)[C@H](Cc1ccccc1)NC(=O)[C@H](CCCCN)NC(=O)[C@H](CCCCN)NC(=O)[C@H](Cc1ccccc1)NC(=O)[C@H](CCCNC(=N)N)NC(=O)[C@H](CCCCN)NC(=O)[C@H](CCCCN)NC(=O)[C@@H](NC(=O)[C@H](CO)NC(=O)[C@H](CC(N)=O)NC(=O)[C@H](CCCCN)NC(=O)[C@H](CC(C)C)NC(=O)[C@H](CCCCN)NC(=O)[C@H](CCCCN)NC(=O)[C@H](Cc1ccccc1)NC(=O)[C@H](Cc1ccccc1)NC(=O)[C@H](CCCCN)NC(=O)[C@H](CCCCN)NC(=O)[C@H](Cc1ccccc1)NC(=O)[C@H](CCCNC(=N)N)NC(=O)[C@@H](N)CCCCN)C(C)C)C(C)C)C(=O)NCC(=O)N[C@H](C(=O)N[C@H](C(=O)N[C@@H](Cc1ccccc1)C(=O)N1CCC[C@H]1C(=O)N[C@@H](Cc1ccccc1)C(=O)O)[C@@H](C)O)C(C)C` [NA-CATH:ATRA1-ATRA1] the “attachment of S. aureus to the wells” value [2] was “did not decrease”, the hemolysis [3] was “did not elicit statistically significant hemolysis” and the “bacterial growth (OD600 at 24 hours)” value [4] was “not decreased”.
In the case of `CC[C@H](C)[C@H](NC(=O)[C@@H](NC(=O)[C@H](CCCCN)NC(=O)[C@@H]1CCCN1C(=O)[C@H](CCCCN)NC(=O)[C@H](CCCCN)NC(=O)[C@H](Cc1ccccc1)NC(=O)[C@H](Cc1ccccc1)NC(=O)[C@H](CCCCN)NC(=O)[C@H](CCCCN)NC(=O)[C@H](C)NC(=O)[C@H](CCCNC(=N)N)NC(=O)[C@H](CCCCN)NC(=O)[C@H](CCCCN)NC(=O)[C@@H](NC(=O)[C@H](CO)NC(=O)[C@H](CC(N)=O)NC(=O)[C@H](CCCCN)NC(=O)[C@H](CC(C)C)NC(=O)[C@H](CCCCN)NC(=O)[C@H](CCCCN)NC(=O)[C@H](Cc1ccccc1)NC(=O)[C@H](Cc1ccccc1)NC(=O)[C@H](CCCCN)NC(=O)[C@H](CCCCN)NC(=O)[C@H](Cc1ccccc1)NC(=O)[C@H](CCCNC(=N)N)NC(=O)[C@@H](N)CCCCN)C(C)C)C(C)C)C(=O)NCC(=O)N[C@H](C(=O)N[C@H](C(=O)N[C@@H](Cc1ccccc1)C(=O)N1CCC[C@H]1C(=O)N[C@@H](Cc1ccccc1)C(=O)O)[C@@H](C)O)C(C)C` [NA-CATH], the “attachment of S. aureus to the wells” value [2] is reported as “did not decrease”, the EC50 [1, 6] is reported as 0.48 µM and the “EC50” value [1, 7] is reported as 2.85 mg/L. For the same molecule, the “inhibition of biofilm formation” value [5] was ~ 50% and the “bacterial growth (OD600 at 24 hours)” value [4] was “not decreased”.

From publication PMC3397408, “Natural and synthetic cathelicidin peptides with anti-microbial and anti-biofilm activity against Staphylococcus aureus” (BMC Microbiology, 2011)
